Assay results: patent US11628186B2, “Method and composition for the reduction of viral replication, duration and spread of the COVID-19 and the flu” (priority 2017, dated 2023)

Key:
[1] = test system: patients with lung diseases including COPD; assay: Comparison of inhaled salts of pyruvate, 5 ml of 5 mM solution (Table II)
[2] = test system: patients with lung diseases including COPD; assay: Comparison of inhaled salts of pyruvate, 5 ml of 0.5 mM solution (Table I)
[3] = test system: patients with sinus & lung diseases including IPF and COPD; assay: Salts of pyruvate as 20 mM nasal sprays (Table IX); conditions: 20 mM (0.22%) nasal spray in 0.9% sodium chloride
[4] = 5 ml of 0.5 mM solution, inhaled

aluminum pyruvate
Irritation [1]: Yes | Irritation [2, 4]: Yes | Irritation ([2]; inhaled into the lungs): irritating | Irritation [3]: Yes

manganese pyruvate
Irritation [1]: Yes | Irritation [2, 4]: Yes | Irritation ([2]; inhaled into the lungs): irritating | Irritation [3]: Yes
